Experimental data published in PubChem BioAssay (NCI).
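Step 1: Grow cells in 96-well plates. Step 2: Expose to compound for 48 hours at 5 concentrations. Step 3: Interpolate endpoints linearly; if unreached, use highest concentration. GI50 = concentration required for 50% inhibition of growth. TGI marks complete inhibition of growth.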

Experiments:
Experiment in all cases: DTP human tumour cell line panel, 48 h
NCI-H322M lung = system: NCI-H322M lung
SK-OV-3 ovarian = system: SK-OV-3 ovarian
HOP-18 NSCLC = system: HOP-18 NSCLC
UO-31 renal = system: UO-31 renal
OVCAR-5 ovarian = system: OVCAR-5 ovarian
SN12C renal = system: SN12C renal
NCI/ADR-RES ovarian = system: NCI/ADR-RES ovarian
A549 NSCLC = system: A549 NSCLC
SF-268 CNS = system: SF-268 CNS
MOLT-4 leukemia = system: MOLT-4 leukemia
U251 CNS = system: U251 CNS
RPMI-8226 leukemia = system: RPMI-8226 leukemia
MALME-3M melanoma = system: MALME-3M melanoma
DMS 273 small cell lung = system: DMS 273 small cell lung
KM12 colon = system: KM12 colon
A498 renal = system: A498 renal
DLD-1 colon = system: DLD-1 colon
SK-MEL-28 melanoma = system: SK-MEL-28 melanoma
KM20L2 colon = system: KM20L2 colon
OVCAR-3 ovarian = system: OVCAR-3 ovarian
SK-MEL-5 melanoma = system: SK-MEL-5 melanoma
UACC-62 melanoma = system: UACC-62 melanoma
UACC-257 melanoma = system: UACC-257 melanoma
IGROV1 ovarian = system: IGROV1 ovarian
SF-295 CNS = system: SF-295 CNS
EKVX NSCLC = system: EKVX NSCLC
SNB-75 CNS = system: SNB-75 CNS
NCI-H522 lung = system: NCI-H522 lung
OVCAR-4 ovarian = system: OVCAR-4 ovarian
RXF 393 renal = system: RXF 393 renal
DMS 114 small cell lung = system: DMS 114 small cell lung
M14 melanoma = system: M14 melanoma
ACHN renal = system: ACHN renal
SW-620 colon = system: SW-620 colon
HL-60(TB) leukemia = system: HL-60(TB) leukemia
LOX IMVI melanoma = system: LOX IMVI melanoma
HOP-62 NSCLC = system: HOP-62 NSCLC
CCRF-CEM leukemia = system: CCRF-CEM leukemia
OVCAR-8 ovarian = system: OVCAR-8 ovarian
HT29 colon = system: HT29 colon
SK-MEL-2 melanoma = system: SK-MEL-2 melanoma
NCI-H460 lung = system: NCI-H460 lung
K-562 leukemia = system: K-562 leukemia
SNB-19 CNS = system: SNB-19 CNS
M19-MEL melanoma = system: M19-MEL melanoma
786-0 renal = system: 786-0 renal
HCT-15 colon = system: HCT-15 colon
SF-539 CNS = system: SF-539 CNS
HCT-116 colon = system: HCT-116 colon
NCI-H23 lung = system: NCI-H23 lung
HCC-2998 colon = system: HCC-2998 colon
SNB-78 CNS = system: SNB-78 CNS
TK-10 renal = system: TK-10 renal
NCI-H226 lung = system: NCI-H226 lung
HOP-92 NSCLC = system: HOP-92 NSCLC
CAKI-1 renal = system: CAKI-1 renal

For `CC1CCOC(=O)/C=C/C=C/C(=O)OC2CC3OC4C5OC5(C)C(O)CC4(COC(=O)C1O)C2(C)C31CO1` (stereo unspecified), the GI50 (NCI-H322M lung) was 0.497 µM, the GI50 (SK-OV-3 ovarian) was 0.523 µM and the GI50 (HOP-18 NSCLC) was 0.92 µM. The GI50 (UO-31 renal) was 0.522 µM, the GI50 (OVCAR-5 ovarian) was 0.531 µM and the GI50 (SN12C renal) was 0.559 µM. The GI50 (NCI/ADR-RES ovarian) was 1.48 µM and the GI50 (A549 NSCLC) was 0.441 µM.
With `C=C(C(=C)S(=O)(=O)c1ccc([N+](=O)[O-])cc1[N+](=O)[O-])S(=O)(=O)c1ccc([N+](=O)[O-])cc1[N+](=O)[O-]` the GI50 (SF-268 CNS) was 13.3 µM, the TGI (SF-268 CNS) was 49 µM and the GI50 (NCI-H322M lung) was 23.2 µM. For the same compound, the TGI (NCI-H322M lung) was 57.2 µM, the GI50 (MOLT-4 leukemia) was 5.19 µM and the TGI (MOLT-4 leukemia) was 26.9 µM. For the same compound, the GI50 (U251 CNS) was 14.6 µM, the TGI (U251 CNS) was 30.4 µM and the GI50 (RPMI-8226 leukemia) was 3.42 µM. It also gave a TGI (RPMI-8226 leukemia) of 27.1 µM, a GI50 (MALME-3M melanoma) of 17 µM and a TGI (MALME-3M melanoma) of 57.1 µM. It also gave a GI50 (DMS 273 small cell lung) of 17.4 µM, a TGI (DMS 273 small cell lung) of 52.4 µM and a GI50 (KM12 colon) of 13.5 µM. The TGI (KM12 colon) was 30.2 µM, the GI50 (A498 renal) was 17.8 µM and the TGI (A498 renal) was 34.3 µM. It also gave a GI50 (SK-OV-3 ovarian) of 24.8 µM, a TGI (SK-OV-3 ovarian) of 40.3 µM and a GI50 (DLD-1 colon) of 8.82 µM. It also gave a TGI (DLD-1 colon) of 66 µM, a GI50 (SK-MEL-28 melanoma) of 16.1 µM and a TGI (SK-MEL-28 melanoma) of 56.5 µM. The GI50 (KM20L2 colon) was 16.9 µM, the TGI (KM20L2 colon) was 56.8 µM and the GI50 (OVCAR-3 ovarian) was 5.48 µM. For the same compound, the TGI (OVCAR-3 ovarian) was 55.5 µM, the GI50 (SK-MEL-5 melanoma) was 16.2 µM and the TGI (SK-MEL-5 melanoma) was 33 µM. The GI50 (UACC-62 melanoma) was 12.3 µM, the TGI (UACC-62 melanoma) was 35 µM and the GI50 (UO-31 renal) was 17.9 µM. For the same compound, the TGI (UO-31 renal) was 32.3 µM, the GI50 (UACC-257 melanoma) was 10.4 µM and the TGI (UACC-257 melanoma) was 26 µM. It also gave a GI50 (IGROV1 ovarian) of 21.3 µM, a TGI (IGROV1 ovarian) of 45.3 µM and a GI50 (SF-295 CNS) of 15 µM. It also gave a TGI (SF-295 CNS) of 34.3 µM, a GI50 (EKVX NSCLC) of 29.3 µM and a TGI (EKVX NSCLC) of 63.2 µM. It also gave a GI50 (SNB-75 CNS) of 14.2 µM, a TGI (SNB-75 CNS) of 49.4 µM and a GI50 (NCI-H522 lung) of 3.05 µM. The TGI (NCI-H522 lung) was 9.76 µM, the GI50 (OVCAR-4 ovarian) was 15.2 µM and the TGI (OVCAR-4 ovarian) was 52.5 µM. It also gave a GI50 (RXF 393 renal) of 2.41 µM, a TGI (RXF 393 renal) of 8.65 µM and a GI50 (DMS 114 small cell lung) of 15.3 µM. It also gave a TGI (DMS 114 small cell lung) of 43.4 µM, a GI50 (M14 melanoma) of 11.9 µM and a TGI (M14 melanoma) of 29.2 µM. The GI50 (OVCAR-5 ovarian) was 19.8 µM, the TGI (OVCAR-5 ovarian) was 35.3 µM and the GI50 (SN12C renal) was 15.9 µM. For the same compound, the TGI (SN12C renal) was 46.8 µM, the GI50 (ACHN renal) was 12.7 µM and the TGI (ACHN renal) was 25.9 µM. It also gave a GI50 (SW-620 colon) of 6.49 µM, a TGI (SW-620 colon) of 32.5 µM and a GI50 (HL-60(TB) leukemia) of 2.98 µM. For the same compound, the TGI (HL-60(TB) leukemia) was 10.5 µM, the GI50 (LOX IMVI melanoma) was 3.27 µM and the TGI (LOX IMVI melanoma) was 23.4 µM. The GI50 (HOP-62 NSCLC) was 25.7 µM, the TGI (HOP-62 NSCLC) was 49.1 µM and the GI50 (CCRF-CEM leukemia) was 1.54 µM. The TGI (CCRF-CEM leukemia) was 6 µM, the GI50 (OVCAR-8 ovarian) was 3.32 µM and the TGI (OVCAR-8 ovarian) was 32.5 µM. The GI50 (HT29 colon) was 9.5 µM, the TGI (HT29 colon) was 36.8 µM and the GI50 (SK-MEL-2 melanoma) was 20.7 µM. It also gave a TGI (SK-MEL-2 melanoma) of 66.7 µM, a GI50 (NCI-H460 lung) of 18.3 µM and a TGI (NCI-H460 lung) of 46.9 µM. The GI50 (K-562 leukemia) was 3.19 µM, the TGI (K-562 leukemia) was 15.4 µM and the GI50 (A549 NSCLC) was 21 µM. The TGI (A549 NSCLC) was 49.8 µM, the GI50 (SNB-19 CNS) was 21.1 µM and the TGI (SNB-19 CNS) was 48.9 µM. It also gave a GI50 (M19-MEL melanoma) of 12.5 µM, a TGI (M19-MEL melanoma) of 51.2 µM and a GI50 (786-0 renal) of 18.6 µM. For the same compound, the TGI (786-0 renal) was 40 µM, the GI50 (HCT-15 colon) was 2.99 µM and the TGI (HCT-15 colon) was 16.3 µM. It also gave a GI50 (SF-539 CNS) of 7.33 µM, a TGI (SF-539 CNS) of 43.2 µM and a GI50 (HCT-116 colon) of 11.8 µM. For the same compound, the TGI (HCT-116 colon) was 39 µM, the GI50 (NCI-H23 lung) was 17.1 µM and the TGI (NCI-H23 lung) was 54.8 µM. It also gave a GI50 (HCC-2998 colon) of 20.1 µM, a TGI (HCC-2998 colon) of 38.9 µM and a GI50 (SNB-78 CNS) of 19.1 µM. For the same compound, the TGI (SNB-78 CNS) was 72.9 µM, the GI50 (TK-10 renal) was 18.2 µM and the TGI (TK-10 renal) was 33.3 µM. It also gave a GI50 (NCI-H226 lung) of 23.6 µM, a TGI (NCI-H226 lung) of 56.1 µM and a GI50 (HOP-92 NSCLC) of 17.3 µM. For the same compound, the TGI (HOP-92 NSCLC) was 35.9 µM, the GI50 (CAKI-1 renal) was 14.5 µM and the TGI (CAKI-1 renal) was 33.7 µM.
